The results in this text go back to PMC8041433 (Environmental Health Perspectives, 2021).

Sequences of proteins named here, by UniProt entry; tags and fusion partners are left off. Residues count along the entry.
UniProt P22303, 32-614 limits assumed: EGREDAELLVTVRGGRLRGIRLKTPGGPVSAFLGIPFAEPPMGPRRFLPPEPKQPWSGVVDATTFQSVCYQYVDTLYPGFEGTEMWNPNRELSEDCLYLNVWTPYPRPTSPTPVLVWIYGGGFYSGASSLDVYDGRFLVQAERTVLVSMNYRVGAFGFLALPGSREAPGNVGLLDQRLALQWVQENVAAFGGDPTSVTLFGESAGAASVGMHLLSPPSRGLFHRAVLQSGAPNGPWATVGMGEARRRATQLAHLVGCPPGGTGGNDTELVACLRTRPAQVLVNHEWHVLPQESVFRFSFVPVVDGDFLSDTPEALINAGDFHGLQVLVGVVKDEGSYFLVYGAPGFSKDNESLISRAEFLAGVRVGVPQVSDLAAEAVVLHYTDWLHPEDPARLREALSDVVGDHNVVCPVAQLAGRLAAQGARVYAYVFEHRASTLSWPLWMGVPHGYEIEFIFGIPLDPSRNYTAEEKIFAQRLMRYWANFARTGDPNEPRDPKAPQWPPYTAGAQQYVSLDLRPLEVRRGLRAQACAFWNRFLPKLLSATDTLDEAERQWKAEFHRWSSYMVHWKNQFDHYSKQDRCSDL

In assay [1] the target is AChE in SH-SY5Y cells (Homo sapiens, UniProt P22303). In words: Cell-based AChE inhibition assay in SH-SY5Y cells, monolayer. Conditions: primary screening, protocol tox21-ache-p3: cell-based AChE assay.
In assay [2] the target is T1, recombinant human AChE (Homo sapiens, UniProt P22303). The assay can be described thus: Enzyme-based AChE inhibition assay (without microsomes), colorimetric qHTS. Type of assay: biochemical. Conditions: primary screening; protocol tox21-ache-p5: enzyme-based AChE assay.
Assay [3] concerns the target T1, recombinant human AChE. Conditions: primary screening; protocol tox21-ms-ache-p2: enzyme-based AChE assay with human microsomes.

Values joined by “and” are separate entries in the source; they are usually repeats but may differ in a detail not shown here. Identical values can stand only once. Like-named read-outs stand apart in the source and are kept apart here. Only a part of the results on these compounds is given; other tests are left out.

Regarding `Cc1ccc([N+](=O)[O-])c([N+](=O)[O-])c1`, the “CC-v2 (curve classes)” value in assay [1] was -2.1; in assay [2], 4; in assay [3], 4. In addition, in assay [1] (null: inactive), the 50% inhibitory concentration (IC50) was 39.9 µM and 40.8 µM and 36.3 µM. Also, the Efficacy in assay [2] and in assay [3] was 0 in each case.

The term IC50 denotes the midpoint of a concentration-inhibition curve.
